Measured values reported in article PMC3898886, “P-glycoprotein (Mdr1a/1b) and breast cancer resistance protein (Bcrp) decrease the uptake of hydrophobic alkyl triphenylphosphonium cations by the brain” (Biochimica et Biophysica Acta, 2013).

Columns and labels:
[1] = tissue and blood content of [3H] TPP compound after IV tail vein injection, wild type mice; details: 100 nmol IV, wild type and transgenic mice
[2] = test system: P-glycoprotein (Mdr1a/1b) and breast cancer resistance protein (Bcrp); experiment: tissue and blood content of [3H] TPP compound after IV injection, transgenic mice lacking ABC transporters, compared with wild type; details: 100 nmol IV

- uptake by the kidneys [1]: extensive uptake
- uptake into heart, kidney and white adipose tissue, transgenic versus wild type mice [2]: no difference
- AUC for accumulation into the brain ([2]; transgenic mice, 1 to 5 h post injection): 0.84 nmol·h/g wet weight
SMILES: C[P+](c1ccccc1)(c1ccccc1)c1ccccc1 [TPMP, methyltriphenylphosphonium, reference compound]
